# Measurements published in patent US20160113282A1 (HONBU SANKEI CO., LTD., priority 2013, published 2016).
# What was measured:
# HEp-2 cells [1] = tested on: HEp-2 cells
# Vero cells = assay: Impairment in colony formation capability; conditions: phosphoric acid buffer (FIG. 7)
# HEp-2 cells [2] = assay: Impairment in colony formation capability; conditions: phosphoric acid buffer (FIG. 7)
# MDCK cells = assay: Impairment in colony formation capability; conditions: phosphoric acid buffer (FIG. 7)
substance,measurement,setting,value
chlorous acid [Chlorous acid aqueous solution],concentration giving dead cells at an amount similar to sodium hypochlorite at 0.5 ppm,"HEp-2 cells [1]; 20 minutes incubation, trypan blue (FIG. 5)",50 ppm
same,cytotoxic action relative to sodium hypochlorite,HEp-2 cells [1]; FIG. 5,about 1/100
same,concentration achieving a ratio of dead cells similar to a minute concentration of sodium hypochlorite,HEp-2 cells [1]; buffers of various pH (FIG. 6),≥ 100 ppm
same,difference in cytotoxic action versus sodium hypochlorite,HEp-2 cells [1]; buffers of various pH (FIG. 6),100 fold
same,concentration at which impairment in colony formation was observed,Vero cells,> 20 ppm
same,concentration at which impairment in colony formation was observed,HEp-2 cells [2],> 20 ppm
same,impairment action in comparison to that of sodium hypochlorite,MDCK cells,about ¼
